Entries after “also recorded” stand apart in the source; their conditions may differ.
Experiments:
[1] = rat
[2] = test system: rats with sciatic nerve ligation; experiment: Paw withdrawal threshold after sciatic nerve ligation, rods placed parallel to the nerve; design: species or system Sprague-Dawley rats; settings: rat, in vivo
rats = experiment: Anesthesia after intrathecal polymeric implants, all sites tested (Example 2); settings: rat, in vivo
[3] = In vitro release of BP or HM from PLGA 50:50 rods; format: physicochemical
[4] = Drug release studies of PLGA 85:15 rods (Example 2); format: physicochemical

SMILES: CN1CC[C@]23c4c5ccc(O)c4O[C@H]2C(=O)CC[C@H]3[C@H]1C5 [Hydromorphone, hydromorphone]
- release from rods retrieved after termination of in vivo test [1]: significant release
- analgesia, paw withdrawal threshold (difference score) [2]: insufficient to provide analgesia; also recorded: possible to achieve the analgesic effect
- duration of anesthesia/analgesia (rats): 3 to 4 days
- time of highest degree of anesthesia after implantation (rats): 2 h
- in vitro extent of release over time [3]: almost all of its contents within a month
- in vitro release behavior [3]: almost first order behavior
- relative rate of drug release [4]: slowest

From patent US6913760B2, “Drug delivery composition” (New England Medical Hospitals, Inc., priority 2001, dated 2005)
